Literature values as cited in article PMC6155412.

Molecular target: FPR1 (Homo sapiens) (UniProt P21462)

## CHIPS (from UniProt Q2FFF7)
  Kd: 35 nM
